From US10221197B2, “Phosphatidylinositol 3-kinase inhibitors” (Gilead Sciences, Inc., priority 2014, dated 2019)

Chains of the proteins cited; added tags and fusions are not shown. Lines headed by an entry give the natural chain unless they say otherwise; changes in a name come on top.
UniProt P48736: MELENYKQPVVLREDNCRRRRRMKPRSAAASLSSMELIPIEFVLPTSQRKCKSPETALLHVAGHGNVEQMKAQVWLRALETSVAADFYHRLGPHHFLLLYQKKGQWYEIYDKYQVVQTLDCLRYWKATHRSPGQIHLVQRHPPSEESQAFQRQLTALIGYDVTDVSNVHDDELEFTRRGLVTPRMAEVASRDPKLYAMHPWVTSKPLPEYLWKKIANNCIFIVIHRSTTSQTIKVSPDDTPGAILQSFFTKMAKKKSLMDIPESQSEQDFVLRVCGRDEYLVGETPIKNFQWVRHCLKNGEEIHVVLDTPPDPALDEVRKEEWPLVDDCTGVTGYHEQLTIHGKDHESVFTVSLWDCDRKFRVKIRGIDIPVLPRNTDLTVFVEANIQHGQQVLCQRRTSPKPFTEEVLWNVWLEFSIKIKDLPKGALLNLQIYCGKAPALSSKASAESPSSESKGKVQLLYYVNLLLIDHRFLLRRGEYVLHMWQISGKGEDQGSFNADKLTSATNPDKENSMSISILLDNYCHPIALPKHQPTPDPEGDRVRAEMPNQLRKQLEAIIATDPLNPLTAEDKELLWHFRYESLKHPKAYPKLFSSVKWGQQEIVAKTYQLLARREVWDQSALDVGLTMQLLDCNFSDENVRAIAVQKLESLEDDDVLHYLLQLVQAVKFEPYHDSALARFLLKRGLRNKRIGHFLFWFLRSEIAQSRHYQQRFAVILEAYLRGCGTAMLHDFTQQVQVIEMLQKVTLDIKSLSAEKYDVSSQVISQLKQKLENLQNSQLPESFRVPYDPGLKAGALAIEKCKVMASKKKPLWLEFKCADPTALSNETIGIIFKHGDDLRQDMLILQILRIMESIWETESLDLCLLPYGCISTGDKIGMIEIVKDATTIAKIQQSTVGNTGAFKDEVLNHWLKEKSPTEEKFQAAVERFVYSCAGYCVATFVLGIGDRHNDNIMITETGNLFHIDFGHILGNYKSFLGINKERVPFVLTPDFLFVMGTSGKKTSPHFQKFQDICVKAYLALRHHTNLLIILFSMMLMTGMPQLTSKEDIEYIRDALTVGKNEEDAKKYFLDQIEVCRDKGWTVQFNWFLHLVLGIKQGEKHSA
UniProt O00329: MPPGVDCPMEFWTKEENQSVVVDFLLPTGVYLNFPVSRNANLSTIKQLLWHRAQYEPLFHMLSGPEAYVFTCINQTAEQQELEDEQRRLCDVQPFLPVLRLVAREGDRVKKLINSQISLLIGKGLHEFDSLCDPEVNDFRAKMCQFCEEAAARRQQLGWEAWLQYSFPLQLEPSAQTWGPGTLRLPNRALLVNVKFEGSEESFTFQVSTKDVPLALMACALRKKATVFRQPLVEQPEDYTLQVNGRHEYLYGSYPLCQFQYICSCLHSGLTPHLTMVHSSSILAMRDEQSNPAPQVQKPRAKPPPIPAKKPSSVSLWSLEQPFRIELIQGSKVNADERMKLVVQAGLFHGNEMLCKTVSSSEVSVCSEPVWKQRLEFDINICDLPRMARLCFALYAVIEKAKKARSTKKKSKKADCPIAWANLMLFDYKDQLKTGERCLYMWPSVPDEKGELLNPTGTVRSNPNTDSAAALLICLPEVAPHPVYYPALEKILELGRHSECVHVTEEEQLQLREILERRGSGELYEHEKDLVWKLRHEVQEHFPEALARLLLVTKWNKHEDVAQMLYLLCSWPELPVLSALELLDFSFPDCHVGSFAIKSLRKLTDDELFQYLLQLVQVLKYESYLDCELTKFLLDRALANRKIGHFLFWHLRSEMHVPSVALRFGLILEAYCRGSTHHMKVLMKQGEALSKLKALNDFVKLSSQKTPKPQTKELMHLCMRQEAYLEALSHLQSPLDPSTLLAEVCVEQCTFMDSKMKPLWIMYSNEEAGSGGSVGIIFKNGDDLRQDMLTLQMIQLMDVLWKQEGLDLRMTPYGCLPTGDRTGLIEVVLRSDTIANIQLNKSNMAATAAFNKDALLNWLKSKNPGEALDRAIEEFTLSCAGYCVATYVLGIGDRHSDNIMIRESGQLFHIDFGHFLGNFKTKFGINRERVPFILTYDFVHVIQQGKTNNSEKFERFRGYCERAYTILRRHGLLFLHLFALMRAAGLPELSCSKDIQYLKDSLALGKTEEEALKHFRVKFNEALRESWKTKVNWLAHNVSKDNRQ

Each molecule was assayed against PI3Kγ (Homo sapiens (Human), UniProt P48736) (assay: TR-FRET enzymatic assay of PI3K isoforms (PI3Kγ)). Settings: 2×Km ATP, 2 μM PIP2, PI3Kγ at 2 nM, incubated for 30 minutes at 25° C., read-out: γ IC50.
Type: biochemical

Row | SMILES | IC50
1 | N#Cc1c(N)nc(N)nc1N[C@H](c1nc2c(Cl)cc(F)cc2c(=O)n1-c1cccc(C(N)=O)c1)C1CC1 [Compound 27, (S)-3-(8-chloro-2-(cyclopropyl((2,6-diamino-5-cyanopyrimidin-4-yl)amino)methyl)-6-fluoro-4-oxoquinazolin-3(4H)-yl)benzamide] | 600 nM
2 | CCNC(=O)Nc1cccc(-n2c([C@H](C)Nc3ncnc(N)c3C#N)nc3cccc(C(F)(F)F)c3c2=O)c1 [Compound 51, (S)-1-(3-(2-(1-((6-amino-5-cyanopyrimidin-4-yl)amino)ethyl)-4-oxo-5-(trifluoromethyl)quinazolin-3(4H)-yl)phenyl)-3-ethylurea] | 7900 nM

Each molecule was assayed against PI3Kδ (Homo sapiens (Human), UniProt O00329) (assay: TR-FRET enzymatic assay of PI3K isoforms (PI3Kδ)). Settings: 2×Km ATP, 2 μM PIP2, incubated for 30 minutes at 25° C., read-out: δ IC50.
Type: biochemical

Row | SMILES | IC50
3 | CCNC(=O)Nc1cccc(-n2c([C@@H](C)Nc3ncnc(N)c3C#N)nc3cccc(Cl)c3c2=O)c1 [Compound 44, (R)-1-(3-(2-(1-((6-amino-5-cyanopyrimidin-4-yl)amino)ethyl)-5-chloro-4-oxoquinazolin-3(4H)-yl)phenyl)-3-ethylurea] | 230 nM
4 | CCNC(=O)Nc1cccc(-n2c([C@H](C)Nc3ncnn4ccnc34)nc3cccc(Cl)c3c2=O)c1 [Compound 71, (S)-1-(3-(5-chloro-2-(1-(imidazo[2,1-f][1,2,4]triazin-4-ylamino)ethyl)-4-oxoquinazolin-3(4H)-yl)phenyl)-3-ethylurea] | 11 nM
5 | CCNC(=O)Nc1cccc(-n2c([C@H](C)Nc3ncnc(N)c3C#N)nc3cccc(Cl)c3c2=O)c1 [Compound 90, (S)-1-(3-(2-(1-((6-amino-5-cyanopyrimidin-4-yl)amino)ethyl)-5-chloro-4-oxoquinazolin-3(4H)-yl)phenyl)-3-ethylurea] | 7 nM
6 | COCCNC(=O)Nc1cccc(-n2c(C(C)Oc3ncnc4scnc34)nc3cccc(Cl)c3c2=O)c1 (stereo not drawn) [Compound 149, 1-(3-(5-chloro-4-oxo-2-(1-(thiazolo[5,4-d]pyrimidin-7-yloxy)ethyl)quinazolin-3(4H)-yl)phenyl)-3-(2-methoxyethyl)urea] | 11 nM
